From US7385103B2, “Animal model, cells, and treatment for malignant melanoma” (Rutgers, the State University, priority 2004, dated 2008)

Test system: Grm1-mediated ERK1/2 activation
Assay: ERK1/2 phosphorylation in melanoma cells, western blot with phospho-ERK1/2 antibodies
Format: cell-based, mouse
Conditions: preincubated 15 minutes with 10 μM PKC inhibitor before quisqualate
Procedure: To examine whether ERK1/2 were activated after Grm1 activation, cells were treated for the indicated times with the agonist Quisqualate. After treatment, melanoma cells were lysed and the activation of ERK1/2 was determined using antibodies against the phosphorylated forms of ERK1/2.
Melanoma cells lines were transiently transfected with dominant-negative mutants of Grm1 and expression of the Grm1 mutants was analyzed by western blot analysis.
Upon IP3 accumulation in cells, calcium is released from the endoplasmic reticulum to the cytoplasm, allowing these ions to act as second messengers that bind to calmodulin and further activate calcium-calmodulin-dependent kinases that are capable of activating mitogen-activated protein kinases (MAPKS) (Soderling (1999) Trends Biochem. Sci. 24(6):232-6). Accordingly, it was determined whether IP3 accumulation in the tumor cell lines disclosed herein, upon Grm1 agonist treatment, would yield intracellular calcium signaling that could affect ERK activation. […]
PIP2 hydrolysis resulting from Grm1 activation leads to the production of IP3 and DAG. […] Thus, it was determined whether the activation of ERK1/2 by Grm1 is also mediated by PKC in the tumor cell lines disclosed herein. […]

For `CN[C@@H]1C[C@H]2O[C@@](C)([C@@H]1OC)n1c3ccccc3c3c4c(c5c6ccccc6n2c5c31)C(=O)NC4` [staurosporine], which “ERK phosphorylation after quisqualate treatment” value is on record?
The value was “abrogation of ERK phosphorylation”.
